In publication PMC9413219 (Journal of Agricultural and Food Chemistry, 2022):

System: rumen inoculum from fistulated cows
Test: In vitro batch culture incubation of a Senecio PA mixture with rumen inoculum
Assay type: in vitro ADME
Conditions: incubation with rumen inoculum up to 20 h

## retrorsine
  degradation rate in rumen incubation (half-life ranking): ranged in the middle
